Assay results from PubChem BioAssay AID1554 (Broad Institute, 2009).
The list shows a part of the results, in another mix than the full data. Calls of active or inactive are those of the source. Rule as the data show it: active = inhibition above about 50%; inconclusive = no clear call, values can overlap the other calls; inactive = below that.

Assay: PubChem AID 1554
Conditions: BJeLR (HRASV12) viability, CellTiter-Glo ATP luminescence, 48 h; hits give high values; concentration not given here

Row | SMILES | inhibition
1 | O=C(/C=C/c1ccccc1)OC1CN2CCC1CC2 (stereo not given) | inactive: -5.74%
2 | CCOC(=O)C(CC)C1=NC(C)(C)Cc2ccccc21.O=[N+]([O-])c1cc([N+](=O)[O-])c(O)c([N+](=O)[O-])c1 (stereo not given) | inactive: -9.35%
3 | O=[N+]([O-])c1cc([N+](=O)[O-])c(Nc2nnnn2CCO)c([N+](=O)[O-])c1 | inactive: 0.904%
4 | CN(C)C1(CNC(=O)c2ccc(S(C)(=O)=O)cc2)CCCCC1 | inactive: 5.17%
5 | COc1cc(C2NCCC3(OCCO3)C2(C)C)cc(OC)c1OC.O=[N+]([O-])c1cc([N+](=O)[O-])c(O)c([N+](=O)[O-])c1 (stereo not given) | inactive: 0.801%
6 | Cc1ccc(C(=O)OC2CN3CCC2CC3)cc1 (stereo not given) | inactive: 11.4%
7 | CC1CCC(C(C)C)C(OP(=O)(Nc2ccccn2)c2ccccc2)C1 (stereo not given) | inactive: -2.44%
8 | Cc1nn(-c2ccccc2)c2c1P(=O)(N1CCOCC1)N(C)C(c1ccccc1)=N2 (stereo not given) | inactive: 6.62%
9 | CC1(CBr)Cn2c(nc3ccccc3c2=O)S1 (stereo not given) | inactive: 0.839%
10 | O=[As](O)(c1ccccc1Br)c1ccccc1Br | inactive: -15.3%
11 | CN(C(=O)Cc1ccc(Cl)c(Cl)c1)[C@@H]1CCCC[C@H]1N1CCCC1 | inactive: 5.89%
12 | CC(C)/C=N\N=C(\N)N[N+](=O)[O-] | inactive: -4.81%
13 | COc1ccccc1CNC(=O)COC(=O)C(O)(c1ccccc1)c1ccccc1 | inactive: -7.14%
14 | O=[N+]([O-])c1cc([N+](=O)[O-])c(-c2cnn(-c3ccccc3)c2)c([N+](=O)[O-])c1 | inactive: -5.77%
15 | CC(C)(C)C(=O)NC(Sc1ncccn1)C(Cl)(Cl)Cl (stereo not given) | inactive: -5.26%
16 | Clc1n[nH]nc1-c1nn[nH][15n]1 | inactive: -5.83%
17 | CN(CCCl)Cc1cc(Cl)c(NC2=NCCN2)c(Cl)c1 | inactive: -1.4%
18 | CCOP(=O)(Nc1ccc(C)cn1)OCC | inactive: -0.427%
19 | CCOP(=O)(NC(=NC(C)c1ccccc1)NC(C)c1ccccc1)OCC (stereo not given) | inactive: 1.18%
20 | O=[N+]([O-])c1cc([N+](=O)[O-])c(-n2nnc3ccccc32)c([N+](=O)[O-])c1 | inactive: -3.53%

Row | SMILES | inhibition
21 | CCC1=CC2Cc3nc4ccc(Cl)cc4c(N)c3C(C1)C2 (stereo not given) | inactive: 6.36%
22 | O=P1(Nc2ccccn2)COc2ccccc2OC1 | inactive: 5.38%
23 | CCOP(=O)(Nc1cccc2ccccc12)OCC | inactive: 1.37%
24 | CCCOP(=S)(Nc1nc(N)cc(=O)[nH]1)OCCC | inactive: -3.82%
25 | Cc1ccc(C)c(NP(C)(=O)Oc2ccccc2)c1 (stereo not given) | inactive: -20.1%
26 | Nc1cccc2c([As](=O)(O)O)cccc12 | inactive: -6.87%
27 | Cc1ccc(NCCc2c([N+](=O)[O-])cc([N+](=O)[O-])cc2[N+](=O)[O-])cc1 | inactive: 0.431%
28 | CP(=O)(Nc1cccc(Br)c1)Oc1ccccc1 (stereo not given) | inactive: 6.43%
29 | Cc1cc(C)cc(OP(C)(=O)Nc2ccccn2)c1 (stereo not given) | inactive: 2.68%
30 | CCOC(=O)c1ccc(NP(C)(=O)Oc2cc(C)cc(C)c2)cc1 (stereo not given) | inactive: 16%
31 | Cc1cc(C)cc(OP(C)(=O)Nc2ccc(C)cc2C)c1 (stereo not given) | inactive: 9.74%
32 | O=[As](O)(c1cccc(O)c1)c1cccc(O)c1 | inactive: -3.16%
33 | Cc1cccc(OCC(=O)OC2CN3CCC2CC3)c1 (stereo not given) | inactive: -13%
34 | CS(=O)(=O)c1ccc(Cl)c(NC(=O)COC(=O)C(O)(c2ccccc2)c2ccccc2)c1 | inactive: -2.69%
35 | COc1ccccc1OP(C)(=O)Nc1cccc(Br)c1 (stereo not given) | inactive: 7.53%
36 | COc1cc(C(=O)NCC2(N3CCOCC3)CCCCC2)cc(Cl)c1OC(C)C | inactive: 1.07%
37 | O=[As](O)(O)c1cccnc1 | inactive: 0.14%
38 | O=C(OC1CN2CCC1CC2)c1ccc(Cl)cc1 (stereo not given) | inactive: -0.156%
39 | CN(C(=O)Cc1ccc(Cl)c(Cl)c1)[C@H]1CC[C@@]2(CCCO2)C[C@@H]1N1CCCC1 | inactive: 2.28%
40 | CC1=NCCc2c1[nH]c1ccccc21.O=[N+]([O-])c1cc([N+](=O)[O-])c(O)c([N+](=O)[O-])c1 | inactive: -2.24%

Row | SMILES | inhibition
41 | CN(C)C(=O)c1cc([N+](=O)[O-])cc2c1-c1c(cc([N+](=O)[O-])cc1[N+](=O)[O-])C2=O | inactive: -8.38%
42 | O=[N+]([O-])c1ccc2c(c1)nnn2O | inactive: -4.83%
43 | CCOP1(=S)c2c(C)nn(CCC#N)c2N=C(c2ccc(F)cc2)N1C (stereo not given) | inactive: -6.93%
44 | CN(C(=O)Cc1ccccc1)[C@@H]1CC[C@]2(CCCO2)C[C@H]1N1CCCC1 | inactive: -2.76%
45 | N#CCCN(C(=O)COC(=O)C(O)(c1ccccc1)c1ccccc1)c1ccc(F)cc1 | inactive: 1.49%
46 | NC(=O)Nc1ccc([As](=O)(O)O)cc1 | inactive: 2.17%
47 | O=C(O)COc1ccc([As](=O)(O)O)cc1[N+](=O)[O-] | inactive: -0.49%
48 | Nc1ccccc1[As](=O)(O)c1ccccc1 | inactive: -0.419%
49 | CS(=O)(=O)c1cc([N+](=O)[O-])c2no[n+]([O-])c2c1 | inactive: -1.22%
50 | O=P(Nc1nccs1)(c1ccccc1)c1nc2ccccc2s1 (stereo not given) | inactive: 3.22%
51 | O=P(Nc1nccs1)(Oc1ccccc1)Oc1ccccc1 | inactive: 4.52%
52 | O=C(O)c1cccc(Nc2c([N+](=O)[O-])cc([N+](=O)[O-])cc2[N+](=O)[O-])c1 | inactive: -0.0289%
53 | CCOP1(=S)c2c(C)nn(CCC#N)c2N=C(c2ccccc2F)N1C (stereo not given) | inactive: 15.1%
54 | Cc1cc(C)cc(OP(C)(N)=O)c1 (stereo not given) | inactive: 1.37%
55 | O=[N+]([O-])c1cc([N+](=O)[O-])c(-c2ccn[nH]2)s1 | inactive: -13%
56 | COc1ccc(OP(C)(=O)Nc2cccc(F)c2)cc1 (stereo not given) | inactive: -7.06%
57 | CCN(CC)C(=S)SC(NC=O)C(Cl)(Cl)Cl (stereo not given) | inactive: 14.2%
58 | CC(C)NC(=O)NP(=O)(Oc1ccccc1)Oc1ccccc1 | inactive: 5.38%
59 | COc1ccccc1OP(C)(=O)Nc1cc(Cl)ccc1C (stereo not given) | inactive: -3.87%
60 | CC(C)c1ccc(OP(=O)(Nc2ccccn2)Oc2ccccc2F)cc1 (stereo not given) | inactive: -19.5%
